TDP1 cell noCPT = qHTS for Inhibitors of human tyrosyl-DNA phosphodiesterase 1 (TDP1): qHTS in cells in absence of CPT; DT40 Tdp1-/- hTDP1 cells, no CPT, ATP luminescence, 48 h; Potency, µM (highest dose often 46.2 µM), without a hit: at the top dose activity change, negative = growth inhibition, actives largely listed as inhibitors; 420,000 compounds, 15% hits; note: potency is the fitted concentration of half-maximal effect; % is set by controls: 0 for no effect and ±100 for the full control effect; nearly all actives have a fitted effect of over 55% in size
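DT40 Tdp1-/-;hTDP1 cells, no CPT (DMSO vehicle only), 400 cells/well; compounds pin-transferred; ≥48 hr, 37 °C; CellTiter-Glo 30 min RT dark, luminescence read.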
uPA surface inh = cell surface uPA generation inhibition; cell surface uPA generation assay, qHTS; Potency, µM (top dose mostly 38.3 µM), for the others: at the top dose activity change, negative = inhibition, hits mostly inhibitors; 330,000 compounds, 0.31% hits; AID 540303; active = well fitted inhibition curve with a large enough effect; inconclusive = small, poorly fitted or top-dose-only effect; inactive = no such curve, though single readings can be large or run the other way; tested in mouse RAW 264.7 cells; note: potency is the fitted concentration of half-maximal effect; % is set by controls: 0 for no effect and ±100 for the full control effect; nearly all actives have a fitted effect of over 55% in size
TDP1 cell CPT = DT40-hTDP1 cell growth loss with CPT; chicken DT40 Tdp1-/-;hTDP1 cells + 20 nM CPT, ATP luminescence, 48 h; Potency, µM (doses to about 46.2 µM), for the others: at the highest dose activity change, negative = growth inhibition, actives largely listed as inhibitors; 420,000 compounds, 12% hits; note: potency is the fitted concentration of half-maximal effect; % is set by controls: 0 for no effect and ±100 for the full control effect; nearly all actives have a fitted effect of over 55% in size
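Cell growth measured by CellTiter-Glo luminescence after a minimum 48 h, 37 C compound exposure with 20 nM CPT in Tdp1-knockout DT40 cells stably expressing hTDP1, seeded 400/well; qHTS titration format.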
TDP1 block = blocks human tyrosyl-DNA phosphodiesterase 1; 350,000 compounds, 0.28% hits; AID 485290; recombinant TDP1, AlphaScreen DNA substrate cleavage; Q9NUW8; Potency, µM (doses to about 130 µM), for the others: at the top dose activity change, negative = inhibition, actives largely listed as inhibitors; note: potency is the fitted concentration of half-maximal effect; % is set by controls: 0 for no effect and ±100 for the full control effect; nearly all actives have a fitted effect of over 40% in size
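Recombinant E. coli-expressed Tdp1 (1 nM) preincubated with compound 15 min at RT, then 5'-biotin/3'-phosphotyrosine-FITC DNA substrate (15 nM) added for 5 min. AlphaScreen beads (10 ug/ml) added, 10 min RT; tyrosine-FITC cleavage read as signal loss.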
miR-21 FLuc = miR-21 reporter, rising signal; Potency, µM (titrated, usually from 38.3 µM), without a hit: at the highest dose reporter change, positive = more light; AID 2288; 340,000 tested, under 10 active; HeLa miR-21 FLuc reporter, luciferase, 48 h; active = well fitted rising curve with a large enough effect; inconclusive = small, poorly fitted or top-dose-only effect; inactive = no such curve, though single readings can be large or run the other way;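 note: % of control where 0% means no effect; miR-21 action dims this reporter so a rising signal means less miR-21 action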
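Compounds were titrated across several concentrations (up to approximately 40 uM) and incubated 48 hours with HeLa miR-21-FLuc reporter cells (miR-21 target sequence downstream of FLuc, endogenous miR-21). Readout was firefly luciferase luminescence after lytic detection reagent.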
Numbers without * were called inactive; ? = inconclusive; . = no result given; [ ] = another dose, or the depositor's remark. Most compounds without a hit are left out; they make up all but 16% or so of the library. Unless noted, calls come from the whole dose curve; as a rule, active = well fitted curve in the direction sought with a large enough effect; inconclusive = small, poorly fitted or top-dose-only effect, or another doubt; inactive = no such curve, though single readings can be large; an effect the other way counts as inactive or inconclusive.

SMILES	TDP1 cell noCPT	uPA surface inh	TDP1 cell CPT	TDP1 block	miR-21 FLuc
O=C(NCC1CCCCC1)c1cc2ccccc2cc1O	?	0.9%	20.6µM*	-4.2%	-17.6%
O=C(NCC1CCCO1)c1cc2ccccc2cc1O (stereo not drawn)	?	-6.6%	-16.4%	0.5%	.
CCN1C[C@@H]2[C@@H]3C(=O)N(Cc4ccccc4)C(=O)[C@@H]3[C@](CC)(C1=O)N2C(=O)c1ccc(F)cc1	-11.0%	-0.3%	-16.8%	.	.
O=CNc1cc(-c2ccccc2Oc2ccccc2)cn2c(-c3ccc(F)cc3)cnc12	10.3µM*	.	?	.	.
CC(=O)c1ccc(-c2cnc3c(NC=O)cc(-c4ccccc4Oc4ccccc4)cn23)cc1	20.6µM*	.	?	.	.
Cc1ccc(Oc2ccccc2)c(NC=O)c1	?	-9.4%	?	0.0%	-26.1%
CCCCC(=O)NC(=S)Nc1c(C)cc(Br)cc1C	18.4µM*	3.4%	20.6µM*	0.0%	-11.1%
O=C(NC1CC1)c1cccc(Nc2ccc(-c3ccc4c(c3)OCCO4)nn2)c1	11.6µM*	.	20.6µM*	8.2%	13.1%
O=S(=O)(c1ccc(Nc2ccc(-c3ccc4c(c3)OCCO4)nn2)cc1)N1CCCC1	?	?	?	6.0%	-0.3%
CC(=O)N1CCc2c(sc3c2c(=O)n(Cc2ccccc2)c(=O)n3Cc2ccccc2Cl)C1	23.1µM*	.	?	5.9%	-4.4%
CC(=O)N1CCc2c(sc3c2c(=O)n(-c2ccc(F)cc2)c(=O)n3Cc2ccc(C#N)cc2)C1	?	.	0.4%	5.9%	-2.1%
CC(=O)N1CCc2c(sc3c2c(=O)n(Cc2ccccc2)c(=O)n3Cc2ccccc2F)C1	20.6µM*	.	20.6µM*	-3.9%	-7.8%
CC(=O)N1CCc2c(sc3c2c(=O)n(CCc2ccccc2)c(=O)n3Cc2ccc(F)cc2)C1	8.2µM*	.	18.4µM*	2.9%	23.7%
O=c1c2c3c(sc2n2cnnc2n1Cc1ccccc1)CN(Cc1ccccc1)CC3	14.6µM*	-1.6%	16.4µM*	9.8%	-3.8%
CC(=O)N1CCc2c(sc3c2c(=O)n(Cc2ccccc2)c(=O)n3Cc2ccc(C)cc2)C1	18.5%	.	-6.5%	0.0%	-0.4%
CC1CCCCC1NC(=S)NC(=O)c1cccs1 (stereo not drawn)	?	3.9%	?	.	-12.1%
O=C(Cc1c[nH]c2ccccc12)NC1(C(=O)NC2CCCCC2)CCCCC1	?	1.6%	?	3.4%	-1.5%
CCCSC1=NC2(CCN(C(=O)NC3CCCCC3)CC2)N=C1c1ccccc1	-20.3%	.	-1.5%	-8.5%	-0.8%
CN(CC(=O)O)c1ccc(/C=C/c2ccnc3ccccc23)cc1	20µM*	.	11.2µM*	.	.
CN(C)C(=O)c1ccc(/C=C/c2ccnc3ccccc23)cc1	15.8µM*	.	?	.	.
O=C(COC(=O)c1ccccc1O)NCCCc1ccccc1	-22.1%	.	-5.8%	5.4%	-4.7%
O=C(OCc1ccccc1)c1ccccc1O	-3.2%	2.9%	0.9%	79.4µM*	.
O=C(OCCCOC(=O)c1ccccc1O)c1ccccc1O	.	.	.	17.8µM*	-7.5%
COc1ccc(-c2nc(CS(=O)CC(=O)NC3CCCCC3C)c(C)o2)cc1OC (stereo not drawn)	?	2.2%	?	2.5%	-8.5%
CCCOc1ccccc1NC(=O)CC1Nc2ccccc2NC1=O (stereo not drawn)	-18.4%	.	-8.6%	8.8%[56.1 µM]	-3.6%
Cc1ccc(C)c(NC(=O)CC2Sc3ccccc3NC2=O)c1 (stereo not drawn)	-22.2%	10.3%	-23.4%	.	.
CCCCOc1ccccc1NC(=O)CC1Sc2ccccc2NC1=O (stereo not drawn)	?	.	20.6µM*	.	-6.0%
Cc1ccc(NC(=O)CC2SC3=NCCCN3C2=O)c(C)c1 (stereo not drawn)	16.4µM*	-3.1%	9.2µM*	2.3%	-3.5%
Cc1ccc(NC(=O)CC2Sc3ccccc3NC2=O)c(C)c1 (stereo not drawn)	23.1µM*	.	?	-2.2%[12.3 µM]	19.1%
CCC(CO)Nc1ncc([N+](=O)[O-])cc1C#N (stereo not drawn)	-26.8%	4.7%	-9.6%	5.6%	-1.6%
CC1CCCCC1NC(=O)CSc1nnc(-c2ccco2)n1C (stereo not drawn)	-19.5%	-3.1%	-1.8%	-2.2%[56.1 µM]	.
Cc1ccc(CNC(=O)c2cc(S(=O)(=O)N3CCCCCC3)cn2C)cc1	-28.7%	.	-23.6%	4.1%	10.0%
N#CC(c1ccc(F)cc1)c1ccc(C(=O)c2ccc(F)cc2)cc1 (stereo not drawn)	20.6µM*	8.3%	?	0.5%	12.6%
Cc1ccc(C(C#N)c2ccc(C(=O)c3ccc(F)cc3)cc2)cc1 (stereo not drawn)	8.2µM*	0.8%	23.1µM*	.	14.3%
O=C(C1CCCCC1)N(CCN1CCN(c2ccccc2CO)CC1)c1ccccn1	10.3µM*	.	?	3.7%	.
COc1ccc(OC)c(NC(=O)Nc2ccc(O)c3ccccc23)c1	4.61µM*	0.6%	2.59µM*	.	.

Five of the compounds above, bar-delimited:
Molecule | TDP1 cell noCPT | uPA surface inh | TDP1 cell CPT | TDP1 block | miR-21 FLuc
N#CC(c1ccc(F)cc1)c1ccc(C(=O)c2ccc(F)cc2)cc1 (stereo not drawn) | 20.6µM* | 8.3% | ? | 0.5% | 12.6%
COc1ccc(-c2nc(CS(=O)CC(=O)NC3CCCCC3C)c(C)o2)cc1OC (stereo not drawn) | ? | 2.2% | ? | 2.5% | -8.5%
CC(=O)c1ccc(-c2cnc3c(NC=O)cc(-c4ccccc4Oc4ccccc4)cn23)cc1 | 20.6µM* | . | ? | . | .
Cc1ccc(Oc2ccccc2)c(NC=O)c1 | ? | -9.4% | ? | 0.0% | -26.1%
CN(CC(=O)O)c1ccc(/C=C/c2ccnc3ccccc23)cc1 | 20µM* | . | 11.2µM* | . | .

More structures:
SMILES	TDP1 cell noCPT	uPA surface inh	TDP1 cell CPT	TDP1 block	miR-21 FLuc
COc1ccc(OC)c(C(=O)Nc2c(O)ccc3ccccc23)c1	16.4µM*	-4.3%	20.6µM*	.	.
COc1ccc(OC)c(NC(=O)Nc2ccccc2C)c1	-9.9%	3.6%	0.3%	2.6%	-2.0%
COc1ccc(OC)c(NC(=O)Nc2cc(NC(=O)Nc3cc(OC)ccc3OC)c(C)nc2C)c1	?	-5.7%	-8.6%	-5.4%	-30.2%
COc1ccc(OC)c(NC(=O)Nc2c(O)ccc3ccccc23)c1	?	4.2%	14.6µM*	.	.
Cc1nc(-c2cn[nH]c2-c2ccc(O)cc2O)cs1	-29.3%	-5.2%	-23.7%	-2.7%	-1.6%
COCCN1C(=O)C(O)=C(C(=O)c2cccs2)C1c1ccccc1 (stereo not drawn)	-3.2%	-1.3%	-6.1%	-13.9%	-2.0%
O=S(=O)(c1cccc(NC(=S)Nc2ccc(Br)cc2Cl)c1)N1CCOCC1	29.1µM*	2.5%	16.4µM*	4.4%	-5.6%
COc1ccc2c(CC(=O)Nc3ccc(OC)c(S(=O)(=O)N4CCOCC4)c3)coc2c1	?	-1.6%	-13.2%	5.4%	-17.6%
O=C(Nc1cccc(S(=O)(=O)N2CCCC2)c1)c1ccc(Cl)nc1	5.8µM*	-9.2%	4.61µM*	-11.8%	.
COc1ccc(NC(=O)Cc2coc3cc(C)c(C(C)C)cc23)cc1S(=O)(=O)N1CCOCC1	11.6µM*	0.8%	11.6µM*	4.2%	23.8%
COc1ccc(NC(=O)c2ccc(S(=O)(=O)N(C)c3ccccc3)cc2)cc1S(=O)(=O)N1CCOCC1	14.6µM*	.	23.1µM*	.	.
O=C(Nc1cccc(S(=O)(=O)N2CCOCC2)c1)c1ccc(Cl)nc1	23.1µM*	?	16.4µM*	0.6%	.

2 of the compounds above, field by field:
> COc1ccc(OC)c(NC(=O)Nc2cc(NC(=O)Nc3cc(OC)ccc3OC)c(C)nc2C)c1
  TDP1 cell noCPT: ?
  uPA surface inh: -5.7%
  TDP1 cell CPT: -8.6%
  TDP1 block: -5.4%
  miR-21 FLuc: -30.2%

> COc1ccc(NC(=O)c2ccc(S(=O)(=O)N(C)c3ccccc3)cc2)cc1S(=O)(=O)N1CCOCC1
  TDP1 cell noCPT: 14.6µM*
  uPA surface inh: .
  TDP1 cell CPT: 23.1µM*
  TDP1 block: .
  miR-21 FLuc: .

Source: PubChem (National Center for Advancing Translational Sciences (NCATS))
